# From patent publication US9994913B2, “Methods and compositions for detecting and treating drug resistant AKT mutant” (Genentech, Inc., priority 2013, dated 2018)
# Legend:
# Akt = assay: Western blot of AKT inhibitor dosed LNCaP cells, Akt phosphorylation and inhibitor binding (FIGS. 3-4); assay type: cell-based; details: GDC-0068 resistant LNCaP cells
# Description: FIGS. 3-4 show Western blot analysis of AKT inhibitor dosed to cancer cells (LNCaP cells).
# LNCaP cells = assay: Dose response of AKT inhibitors in parental and AKT-inhibitor-resistant LNCaP cells (FIGS. 1-2, 6); assay type: cell-based; details: LNCaP clones derived under increasing doses of GDC-0068
# Description: Resistant clones to both inhibitors were derived from populations of cancer cells treated with increasing doses of AKT inhibitor over time. For GDC-0068, cells that are ˜10× less sensitive were cloned. For MK2206, cells that are ˜40× less sensitive were cloned.
# Akt inhibitor resistance in LNCaP cells remains dependent on the Akt pathway activity in cases of resistance to both GDC-0068 and MK-2206.
# The in vitro potency of the combinations of the compound of Example 2 with certain specific chemotherapeutic agents was measured using the CellTiterGlo® Luminescent Cell Viability Assay, commercially available from Promega Corp., Madison, Wis. This homogeneous assay method is based on the recombinant expression of Coleoptera luciferase (U.S. Pat. Nos. 5,583,024; 5,674,713; 5,700,670) and determines the number of viable cells in culture based on quantitation of the ATP present, an indicator of metabolically active cells (Crouch et al (1993) J. Immunol. Meth. 160:81-88; U.S. Pat. No. 6,602,677). […]
# The homogeneous “add-mix-measure” format results in cell lysis and generation of a luminescent signal proportional to the amount of ATP present. […] Viable cells are reflected in relative luminescence units (RLU). […] Data can be recorded by luminometer or CCD camera imaging device. The luminescence output is presented as relative light units (RLU), measured over time.
smiles,measurement,setting,value
"CC(C)NC[C@@H](C(=O)N1CCN(c2ncnc3c2[C@H](C)C[C@H]3O)CC1)c1ccc(Cl)cc1 [GDC-0068, (S)-2-(4-chlorophenyl)-1-(4-((5R,7R)-7-hydroxy-5-methyl-6,7-dihydro-5H-cyclopenta [d]pyrimidin-4-yl)piperazin-1-yl)-3-(isopropylamino)propan-1-one]",binding of the inhibitor in resistant cells,Akt,still bind to the inhibitor
same,"fold less sensitive to GDC-0068, resistant clones vs parental",LNCaP cells,~10 ×
